Source: ChEMBL document CHEMBL4346652, “Cyclin-Dependent Kinase 2 Inhibitors in Cancer Therapy: An Update” (J Med Chem, 2019)

Sequences of proteins named here, by UniProt entry; tags and fusion partners are left off.
UniProt P50750, whole entry: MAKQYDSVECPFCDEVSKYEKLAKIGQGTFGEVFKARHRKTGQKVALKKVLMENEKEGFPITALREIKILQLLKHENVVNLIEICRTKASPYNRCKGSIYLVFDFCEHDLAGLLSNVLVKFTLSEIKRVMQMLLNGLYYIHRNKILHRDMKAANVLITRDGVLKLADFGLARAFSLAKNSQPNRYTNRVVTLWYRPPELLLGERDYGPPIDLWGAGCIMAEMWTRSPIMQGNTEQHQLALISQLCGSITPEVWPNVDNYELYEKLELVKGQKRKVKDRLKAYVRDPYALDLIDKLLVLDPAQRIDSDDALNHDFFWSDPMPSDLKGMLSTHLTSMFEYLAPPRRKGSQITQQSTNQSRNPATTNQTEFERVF

Target: CDK9/Cyclin K (Homo sapiens, UniProt P50750)
Assay: Inhibition of human recombinant full length His-tagged CDK9/cyclin K expressed in baculovirus expression system

`CN1C/C=C/CCOc2cccc(c2)-c2ccnc(n2)Nc2cccc(c2)C1` [ZOTIRACICLIB] showed an IC50 of 3 nM.
